Laboratory results as given in publication PMC5843908, “Detection of PRMT1 inhibitors with stopped flow fluorescence” (Signal Transduction and Targeted Therapy, 2018).

Protein sequences, listed by entry. Tags and fused reporters are not part of them. Residues count along the entry.
UniProt Q99873, 29-371: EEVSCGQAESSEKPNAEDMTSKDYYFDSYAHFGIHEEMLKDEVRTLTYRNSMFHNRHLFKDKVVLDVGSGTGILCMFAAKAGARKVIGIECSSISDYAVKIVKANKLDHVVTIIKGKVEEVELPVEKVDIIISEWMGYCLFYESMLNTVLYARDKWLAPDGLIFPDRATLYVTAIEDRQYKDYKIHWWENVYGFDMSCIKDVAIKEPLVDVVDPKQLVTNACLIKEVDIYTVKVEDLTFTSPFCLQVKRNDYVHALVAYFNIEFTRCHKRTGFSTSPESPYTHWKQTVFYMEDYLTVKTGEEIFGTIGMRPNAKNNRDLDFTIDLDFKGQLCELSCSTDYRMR

Target: PRMT1 (Homo sapiens, UniProt Q99873)
Experiment: Stopped flow fluorescence assay of PRMT1 inhibition ([PRMT1] 0.2 µM, [SAM] 3.5 µM, [H4FL] 0.4 µM);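 note: Stopped-flow traces of fluorescent H4FL peptide quenched on binding PRMT1 and restored on release, recorded 900 s, averaged over repeated drives and fit to a double-exponential model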
Type: biochemical
Settings: [SAH] 0.5 µM

## Nc1ncnc2c1ncn2[C@@H]1O[C@H](CSCC[C@H](N)C(=O)O)[C@@H](O)[C@H]1O [SAH, S-adenosyl homocysteine]
  a·k1 (slope of Phase I): 0.0168 ± 4.24e-05 s⁻¹
